Cyclic peptide permeability, from CycPeptMPDB

Values of Furukawa et al. 2016, doi:10.1021/acs.jmedchem.6b01246, as listed in CycPeptMPDB.

PAMPA is the parallel artificial membrane permeability assay, which has no cells and reads passive diffusion. P is given in units of 10^-6 cm/s (from log10 values with two decimals); larger means faster passage.

{"smiles": "CCCC[C@@H]1NC(=O)[C@@H](CC(C)C)NC(=O)CN(CC2CCCCC2)C(=O)[C@@H](C)NC(=O)CN(CCCOC(C)C)C(=O)[C@H]2CCCN2C1=O", "PAMPA (10^-6 cm/s)": "3.6"}
{"smiles": "CCCC[C@@H]1NC(=O)[C@H](CC(C)C)NC(=O)CN(CC2CCCCC2)C(=O)[C@@H](Cc2ccccc2)NC(=O)CN(Cc2ccc3c(c2)OCO3)C(=O)[C@H]2CCCN2C1=O", "PAMPA (10^-6 cm/s)": "2.4"}
{"smiles": "CCCCCN1CC(=O)N(C)[C@H](CC(C)C)C(=O)N[C@@H](CCCC)C(=O)N2CCC[C@H]2C(=O)N(CC)CC(=O)N[C@H](C)C1=O", "PAMPA (10^-6 cm/s)": "0.55"}
{"smiles": "CCCC[C@@H]1NC(=O)[C@@H](CC(C)C)NC(=O)CN(CC2CCOCC2)C(=O)[C@H](C)NC(=O)CN(CCCOC(C)C)C(=O)[C@@H]2CCCN2C1=O", "PAMPA (10^-6 cm/s)": "0.15"}
{"smiles": "CCCC[C@@H]1NC(=O)[C@@H](CC(C)C)NC(=O)CN(CC2CCOCC2)C(=O)[C@@H](Cc2ccccc2)NC(=O)CN(Cc2ccc3c(c2)OCO3)C(=O)[C@@H]2CCCN2C1=O", "PAMPA (10^-6 cm/s)": "1"}
{"smiles": "CCCC[C@@H]1NC(=O)[C@H](CC(C)C)N(C)C(=O)CN(CC2CCCCC2)C(=O)[C@@H](C)NC(=O)CN(CCCOC(C)C)C(=O)[C@@H]2CCCN2C1=O", "PAMPA (10^-6 cm/s)": "11"}
{"smiles": "CCCCCN1CC(=O)N(C)[C@@H](CC(C)C)C(=O)N[C@@H](CCCC)C(=O)N2CCC[C@@H]2C(=O)N(CCCOC(C)C)CC(=O)N[C@@H](C)C1=O", "PAMPA (10^-6 cm/s)": "11"}
{"smiles": "CCCC[C@@H]1NC(=O)[C@@H](CC(C)C)NC(=O)CN(CC2CCCCC2)C(=O)[C@@H](C)NC(=O)CN(CC)C(=O)[C@H]2CCCN2C1=O", "PAMPA (10^-6 cm/s)": "1"}
{"smiles": "CCCC[C@@H]1NC(=O)[C@@H](CC(C)C)N(C)C(=O)CN(CC2CCCCC2)C(=O)[C@@H](Cc2ccccc2)NC(=O)CN(Cc2ccc3c(c2)OCO3)C(=O)[C@H]2CCCN2C1=O", "PAMPA (10^-6 cm/s)": "0.13"}
{"smiles": "CCCCCN1CC(=O)N(C)[C@@H](CC(C)C)C(=O)N[C@@H](CCCC)C(=O)N2CCC[C@H]2C(=O)N(Cc2ccc3c(c2)OCO3)CC(=O)N[C@H](Cc2ccccc2)C1=O", "PAMPA (10^-6 cm/s)": "3.2"}
{"smiles": "CCCC[C@@H]1NC(=O)[C@@H](CC(C)C)NC(=O)CN(CC2CCOCC2)C(=O)[C@@H](Cc2ccccc2)NC(=O)CN(CCCOC(C)C)C(=O)[C@H]2CCCN2C1=O", "PAMPA (10^-6 cm/s)": "2.6"}
{"smiles": "CCCC[C@@H]1NC(=O)[C@H](CC(C)C)NC(=O)CN(CC2CCOCC2)C(=O)[C@H](C)NC(=O)CN(CC)C(=O)[C@H]2CCCN2C1=O", "PAMPA (10^-6 cm/s)": "0.024"}
{"smiles": "CCCCCN1CC(=O)N[C@H](CC(C)C)C(=O)N[C@@H](CCCC)C(=O)N2CCC[C@@H]2C(=O)N(CCCOC(C)C)CC(=O)N[C@H](C)C1=O", "PAMPA (10^-6 cm/s)": "1.5"}
{"smiles": "CCCCCN1CC(=O)N[C@H](CC(C)C)C(=O)N[C@@H](CCCC)C(=O)N2CCC[C@@H]2C(=O)N(Cc2ccc3c(c2)OCO3)CC(=O)N[C@H](C)C1=O", "PAMPA (10^-6 cm/s)": "4.9"}
{"smiles": "CCCC[C@@H]1NC(=O)[C@H](CC(C)C)N(C)C(=O)CN(CC2CCCCC2)C(=O)[C@H](Cc2ccccc2)NC(=O)CN(CCCOC(C)C)C(=O)[C@@H]2CCCN2C1=O", "PAMPA (10^-6 cm/s)": "4.1"}
{"smiles": "CCCC[C@@H]1NC(=O)[C@@H](CC(C)C)N(C)C(=O)CN(CC2CCOCC2)C(=O)[C@@H](Cc2ccccc2)NC(=O)CN(CCCOC(C)C)C(=O)[C@H]2CCCN2C1=O", "PAMPA (10^-6 cm/s)": "5.5"}

Again, the 2 entries with the lowest PAMPA:

{"smiles": "CCCC[C@@H]1NC(=O)[C@H](CC(C)C)NC(=O)CN(CC2CCOCC2)C(=O)[C@H](C)NC(=O)CN(CC)C(=O)[C@H]2CCCN2C1=O", "PAMPA (10^-6 cm/s)": "0.024"}
{"smiles": "CCCC[C@@H]1NC(=O)[C@@H](CC(C)C)N(C)C(=O)CN(CC2CCCCC2)C(=O)[C@@H](Cc2ccccc2)NC(=O)CN(Cc2ccc3c(c2)OCO3)C(=O)[C@H]2CCCN2C1=O", "PAMPA (10^-6 cm/s)": "0.13"}

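The data file gives no further conditions (lipid, pH, time, direction or concentration), and values from different papers need not be comparable. Other peptides of the study may be missing here. Peptides that the database sets to -10, its floor, are left out.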